Target: T1, human neutrophil elastase (NE) (Homo sapiens, UniProt P08246)
T1 sequence (P08246 30-267): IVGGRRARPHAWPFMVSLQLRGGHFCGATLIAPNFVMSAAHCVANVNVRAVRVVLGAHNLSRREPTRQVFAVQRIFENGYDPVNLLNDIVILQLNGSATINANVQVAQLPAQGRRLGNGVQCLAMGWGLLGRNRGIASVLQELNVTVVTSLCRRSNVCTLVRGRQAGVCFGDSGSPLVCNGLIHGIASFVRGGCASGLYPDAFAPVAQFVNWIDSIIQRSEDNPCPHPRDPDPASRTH
Assay: Absorbance-based protease activity assay, human NE
Type: biochemical

- IC50: 189 nM
SMILES: CC(C)(C)C(=O)Oc1ccc(S(=O)(=O)Nc2ccccc2C(=O)NCC(=O)O)cc1 [sivelestat]

From article PMC10834355 (Cell metabolism, 2023)
